Reference: patent publication EP0608873A1, “Nitrosamine inhibition” (ALBRIGHT & WILSON UK LIMITED, priority 1993, dated 1994)

Details: amine oxide stored at 45°C; result in words

## sodium salt of hydroxyethylamine bis methylene phosphonic acid [Inhibitor 1]
  inhibitory effect upon storage: inferior with respect to Inhibitor 2
